The target in one assay is HLA-B*0702 (Homo sapiens, UniProt P01889). The assay can be described thus: biochemical. The settings on record: B*0702 binding affinity (IC50).
The target in a further assay is HLA-B*5101 (Homo sapiens, UniProt P01889, A329T/A93T/A95T/C349S/D138N/D201E/D98Y/E187L/E204Q/E69T/G107R/I218V/K202T/L105A/L119W/N104I/Q94N/R106L/R155S/R180L/S101N/S121T/S35A/S48A/V306I/V36M/Y195H/Y91F). The experiment in a line: biochemical. The settings on record: B*5101 binding affinity (IC50).
A further assay has as its target HLA-B*5301 (Homo sapiens, UniProt P01889, A329T/A93T/A95T/C349S/D201E/D98Y/E176V/E187L/E204Q/E69T/G107R/I218V/K202T/L105A/L119I/N104I/Q94N/R106L/R155S/R180L/S101N/S121R/S35A/S48A/T118I/V127L/V306I/V36M/Y140S/Y91F). The assay can be described thus: biochemical. Conditions: B*5301 binding affinity (IC50).
A further assay deals with HLA-B*5401 (Homo sapiens, UniProt P01889, A329T/C349S/D138N/D201E/E176V/E187T/E204Q/E69G/I76V/K202T/L119W/R155S/R180L/S121T/S35A/S48A/V127L/V306I/V36M/Y140L). The experiment in a line: biochemical. Conditions: B*5401 binding affinity (IC50).
The next assay has as its target H-2Ld (Mus musculus, UniProt P01897). The format is binding, murine.
The next assay concerns HLA-DR DRB5*0201. Format: binding, human. Conditions: read-out: DRB5 *0201.

Sequences of proteins named here, by UniProt entry; tags and fusion partners are left off. A change or cut given only in a name is not applied to a line headed by its entry. Residues count along the entry.
UniProt P01889, 25-362: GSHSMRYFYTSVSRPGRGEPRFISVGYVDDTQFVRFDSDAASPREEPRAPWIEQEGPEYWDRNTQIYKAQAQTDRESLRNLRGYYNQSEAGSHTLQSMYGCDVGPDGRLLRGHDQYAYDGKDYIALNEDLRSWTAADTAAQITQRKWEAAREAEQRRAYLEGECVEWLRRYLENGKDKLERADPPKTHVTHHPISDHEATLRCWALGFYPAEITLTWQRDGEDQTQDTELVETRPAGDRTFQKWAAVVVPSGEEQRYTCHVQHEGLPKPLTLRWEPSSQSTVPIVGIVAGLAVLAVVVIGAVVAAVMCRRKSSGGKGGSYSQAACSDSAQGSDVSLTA
UniProt P01897, 25-362: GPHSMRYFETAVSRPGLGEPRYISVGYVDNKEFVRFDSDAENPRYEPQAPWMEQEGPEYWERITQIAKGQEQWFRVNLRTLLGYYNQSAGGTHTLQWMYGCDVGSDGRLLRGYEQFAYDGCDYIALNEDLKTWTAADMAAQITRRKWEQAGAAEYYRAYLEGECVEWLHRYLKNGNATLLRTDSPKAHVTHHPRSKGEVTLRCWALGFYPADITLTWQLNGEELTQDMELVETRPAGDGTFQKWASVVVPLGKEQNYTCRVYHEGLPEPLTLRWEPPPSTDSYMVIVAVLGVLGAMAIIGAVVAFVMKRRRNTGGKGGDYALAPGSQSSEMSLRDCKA

As to `CC(C)C[C@H](NC(=O)[C@H](Cc1ccccc1)NC(=O)[C@H](C)NC(=O)[C@H](CCCCN)NC(=O)[C@H](Cc1ccc(O)cc1)NC(=O)[C@@H](NC(=O)[C@@H]1CCCN1C(=O)[C@@H](N)CO)[C@@H](C)O)C(=O)O`, the IC50 at HLA-B*0702 worked out at 109 nM; on HLA-B*5101, 4670 nM; at HLA-B*5301, 54900 nM; on HLA-B*5401, 58700 nM. Compound TPQSLDYWWTSL showed an IC50 at H-2Ld of 1.6 nM. Same read-out and setting: the result for TPQSRDSWWTSL reads 21 nM. Consider VDAQGTLSKIFKLGGRDSRS, for which the IC50 in the assay on HLA-DR DRB5*0201 was 1150 nM.

(Values after patent US20060079453A1, “Hla binding peptides and their uses” (priority 2002, published 2006).)
